Data reported in ChEMBL document CHEMBL5131468, “Systematic comparison of activity and mechanism of antimicrobial peptides against nosocomial pathogens” (Eur J Med Chem, 2022).

Columns and labels:
Staphylococcus aureus [1] = assay: Antibacterial activity against Staphylococcus aureus ATCC 29213 assessed as inhibition of bacterial growth incubated for 90 mins by serial dilution assay; format: functional; conditions: ATCC 29213, 1.5 h
Cell membrane [2] = assay: Induction of membrane depolarization in Staphylococcus aureus ATCC 29213 at 0.25 times MIC after 60 mins by DiOC23 dye based based flow cytometry; format: subcellular
Cell membrane [3] = assay: Induction of inner membrane damage in Escherichia coli ATCC 25922 assessed disruption of membrane integrity at 0.5 to 256 ug/ml and measured after 90 mins by propidium iodide staining based flow cytometry; format: subcellular; conditions: dose 0.5-256 µg/ml
Cell membrane [4] = assay: Induction of membrane depolarization in Salmonella enterica serovar typhimurium SL1344 at 0.25 to 0.5 times MIC after 60 mins by DiOC23 dye based based flow cytometry; format: subcellular; conditions: Salmonella enterica subsp. enterica serovar Typhimurium
Enterococcus faecalis [5] = assay: Antibacterial activity against Enterococcus faecalis ATCC 29212 assessed as inhibition of bacterial growth incubated for 90 mins by serial dilution assay; format: functional; conditions: ATCC 29212, 1.5 h
Salmonella typhimurium [6] = assay: Antibacterial activity against Salmonella enterica serovar typhimurium SL1344 assessed as inhibition of bacterial growth incubated for 90 mins by serial dilution assay; format: functional, Salmonella enterica subsp. enterica serovar Typhimurium; conditions: SL1344, 1.5 h
Cell membrane [7] = assay: Induction of membrane depolarization in Escherichia coli ATCC 25922 at 0.5 times MIC after 60 mins by DiOC23 dye based based flow cytometry relative to control
Escherichia coli [8] = assay: Induction of morphological changes in Escherichia coli ATCC 25922 at 0.5 times MIC incubated for 90 mins by Helium ion microscopy; format: functional, organism-based
Escherichia coli [9] = assay: Induction of morphological changes in Escherichia coli ATCC 25922 assessed as formation of vesicular bodies at 2 times MBC incubated for 90 mins by Helium ion microscopy; format: functional, organism-based
Escherichia coli [10] = assay: Induction of morphological changes in Escherichia coli ATCC 25922 assessed as leakage in intracellular contents at 0.5 times MIC incubated for 90 mins by Helium ion microscopy; format: functional, organism-based
Staphylococcus aureus [11] = assay: Antibacterial activity against Methicillin resistant Staphylococcus aureus ATCC 33591 assessed as inhibition of bacterial growth incubated for 90 mins by serial dilution assay; format: functional; conditions: ATCC 33591, 1.5 h
Cell membrane [12] = assay: Induction of membrane depolarization in Salmonella enterica serovar typhimurium SL1344 at 0.5 times MIC after 60 mins by DiOC23 dye based based flow cytometry relative to control; conditions: Salmonella enterica subsp. enterica serovar Typhimurium
Cell membrane [13] = assay: Induction of membrane depolarization in Enterococcus faecalis ATCC 29212 at 0.5 times MIC after 60 mins by DiOC23 dye based based flow cytometry relative to control
Cell membrane [14] = assay: Induction of outer membrane permeabilization in Salmonella enterica serovar typhimurium SL1344 assessed as increase in NPN fluorescence intensity incubated for 15 mins by NPN-dye based fluorescence analysis; format: subcellular; conditions: Salmonella enterica subsp. enterica serovar Typhimurium
Escherichia coli [15] = assay: Antibacterial activity against Escherichia coli BAA3051 assessed as inhibition of bacterial growth incubated for 90 mins by serial dilution assay; format: functional; conditions: BAA3051, 1.5 h
Cell membrane [16] = assay: Induction of membrane depolarization in Escherichia coli ATCC 25922 at 0.25 to 0.5 times MIC after 60 mins by DiOC23 dye based based flow cytometry; format: subcellular
Cell membrane [17] = assay: Induction of membrane depolarization in Enterococcus faecalis ATCC 29212 at 0.25 times MIC after 60 mins by DiOC23 dye based based flow cytometry; format: subcellular
Escherichia coli [18] = assay: Antibacterial activity against Escherichia coli ATCC 25922 assessed as inhibition of bacterial growth incubated for 90 mins by serial dilution assay; format: functional; conditions: ATCC 25922, 1.5 h
Lipid bilayer = assay: Induction of membrane disruption in Gram-positive bacterial cell membrane mimic POPG:Cardiolipin (9:1) large unilamellar vesicle assessed as carboxyfluorescein leakage by fluorescence analysis
Salmonella typhimurium [19] = assay: Bactericidal activity against Salmonella enterica serovar typhimurium SL1344 incubated for 90 mins by serial dilution assay; format: functional, Salmonella enterica subsp. enterica serovar Typhimurium; conditions: SL1344, 1.5 h
Staphylococcus aureus [20] = assay: Bactericidal activity against Staphylococcus aureus ATCC 29213 incubated for 90 mins by serial dilution assay; format: functional; conditions: ATCC 29213, 1.5 h
Escherichia coli [21] = assay: Bactericidal activity against Escherichia coli BAA3051 incubated for 90 mins by serial dilution assay; format: functional; conditions: BAA3051, 1.5 h
Cell membrane [22] = assay: Induction of outer membrane permeabilization in Escherichia coli ATCC 25922 assessed as increase in NPN fluorescence intensity incubated for 15 mins by NPN-dye based fluorescence analysis; format: subcellular
Escherichia coli [23] = assay: Bactericidal activity against Escherichia coli ATCC 25922 incubated for 90 mins by serial dilution assay; format: functional; conditions: ATCC 25922, 1.5 h
Staphylococcus aureus [24] = assay: Induction of morphological changes in Staphylococcus aureus ATCC 29213 assessed as intracellular content leakage by measuring cell structural component degeneration at 0.5 to 2 times MIC incubated for 90 mins by Helium ion microscopy; format: functional, organism-based
Enterococcus faecalis [25] = assay: Bactericidal activity against Enterococcus faecalis ATCC 29212 incubated for 90 mins by serial dilution assay; format: functional; conditions: ATCC 29212, 1.5 h
Staphylococcus aureus [26] = assay: Induction of morphological changes in Staphylococcus aureus ATCC 29213 assessed as intracellular content leakage by measuring membrane degradation at 0.5 to 2 times MIC incubated for 90 mins by Helium ion microscopy; format: functional, organism-based
Staphylococcus aureus [27] = assay: Bactericidal activity against Methicillin resistant Staphylococcus aureus ATCC 33591 incubated for 90 mins by serial dilution assay; format: functional; conditions: ATCC 33591, 1.5 h
Cell membrane [28] = assay: Induction of inner membrane damage in Staphylococcus aureus ATCC 29213 assessed disruption of membrane integrity at 0.5 to 256 ug/ml and measured after 90 mins by propidium iodide staining based flow cytometry; format: subcellular; conditions: dose 0.5-256 µg/ml
Cell membrane [29] = assay: Induction of outer membrane permeabilization in Escherichia coli BAA3051 assessed as increase in NPN fluorescence intensity incubated for 15 mins by NPN-dye based fluorescence analysis
Cell membrane [30] = assay: Induction of membrane depolarization in Staphylococcus aureus ATCC 29213 at 0.5 times MIC after 60 mins by DiOC23 dye based based flow cytometry relative to control; format: subcellular
Escherichia coli [31] = assay: Induction of morphological changes in Escherichia coli ATCC 25922 assessed as formation of vesicular bodies at 2 times MIC incubated for 90 mins by Helium ion microscopy; format: functional, organism-based

## CC[C@H](C)[C@H](NC(=O)[C@H](CCCCN)NC(=O)[C@@H]1CCCN1C(=O)[C@@H](NC(=O)[C@H](CC(C)C)NC(=O)[C@H](C)NC(=O)[C@H](Cc1ccccc1)NC(=O)[C@H](Cc1ccccc1)NC(=O)CN)[C@@H](C)CC)C(=O)N[C@H](C(=O)N[C@@H](CO)C(=O)N[C@@H](CO)C(=O)N1CCC[C@H]1C(=O)N[C@@H](CC(C)C)C(=O)N[C@@H](Cc1ccccc1)C(=O)N[C@@H](CCCCN)C(=O)N[C@H](C(=O)N[C@@H](CC(C)C)C(=O)N[C@@H](CC(C)C)C(=O)N[C@@H](CO)C(=O)N[C@@H](C)C(=O)N[C@H](C(=O)O)C(C)C)[C@H](C)O)[C@@H](C)CC
Staphylococcus aureus [1]
  MIC: 7.8 mg/L (≈ 3.3 µM)
Cell membrane [2]
  Activity: Active
Cell membrane [3]
  Activity: Active
Cell membrane [4]
  Activity: 30%
Enterococcus faecalis [5]
  MIC: 7.8 mg/L (≈ 3.3 µM)
Salmonella typhimurium [6]
  MIC: 125 mg/L (≈ 52.9 µM)
Cell membrane [7]
  Activity: 40%
Escherichia coli [8]
  Activity: Active
Escherichia coli [9]
  Activity: Active
Escherichia coli [10]
  Activity: Active
Staphylococcus aureus [11]
  MIC: 7.8 mg/L (≈ 3.3 µM)
Cell membrane [12]
  Activity: 40%
Cell membrane [13]
  Activity: 40%
Cell membrane [14]
  Activity: Active
Escherichia coli [15]
  MIC: 31.3 mg/L (≈ 13.2 µM)
Cell membrane [16]
  Activity: 30%
Cell membrane [17]
  Activity: Active
Escherichia coli [18]
  MIC: 31.3 mg/L (≈ 13.2 µM)
Lipid bilayer
  Activity: Active
Salmonella typhimurium [19]
  MBC: 125 mg/L (≈ 52.9 µM)
Staphylococcus aureus [20]
  MBC: 15.6 mg/L (≈ 6.6 µM)
Escherichia coli [21]
  MBC: 31.3 mg/L (≈ 13.2 µM)
Cell membrane [22]
  Activity: Active
Escherichia coli [23]
  MBC: 31.3 mg/L (≈ 13.2 µM)
Staphylococcus aureus [24]
  Activity: Active
Enterococcus faecalis [25]
  MBC: 7.8 mg/L (≈ 3.3 µM)
Staphylococcus aureus [26]
  Activity: Active
Staphylococcus aureus [27]
  MBC: 15.6 mg/L (≈ 6.6 µM)
Cell membrane [28]
  Activity: Active
Cell membrane [29]
  Activity: Active
Cell membrane [30]
  Activity: 40%
Escherichia coli [31]
  Activity: Active

≈ marks a conversion by molar mass, not a printed value. Calls of active or inactive are those of the source. The calls are words filed in the database; no cut-off is given here.
